Molecular target: FP receptor (Homo sapiens (Human), UniProt P43088)
Assay: In vitro test of inhibition of human FP receptor activity (PGF2α-induced calcium flux in FP-expressing CHEM1 cells)
Assay type: cell-based
Details: read-out: FP receptor activity IC50, PGF2α 2 nM, some mean values of multiple determinations

Sequences of proteins named here, by UniProt entry; tags and fusion partners are left off.
UniProt P43088, whole entry: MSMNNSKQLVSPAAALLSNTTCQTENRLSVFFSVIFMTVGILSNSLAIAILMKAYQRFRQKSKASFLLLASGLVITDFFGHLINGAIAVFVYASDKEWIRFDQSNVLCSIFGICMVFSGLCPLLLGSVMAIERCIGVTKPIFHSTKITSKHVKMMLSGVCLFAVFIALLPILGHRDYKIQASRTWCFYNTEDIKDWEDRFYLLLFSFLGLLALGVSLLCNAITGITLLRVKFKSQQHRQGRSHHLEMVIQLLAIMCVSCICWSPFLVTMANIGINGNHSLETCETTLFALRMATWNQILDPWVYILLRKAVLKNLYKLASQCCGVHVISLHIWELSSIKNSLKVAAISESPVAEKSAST

- IC50: 1.9 nM
SMILES: [2H]C1([2H])N(c2nc3ccc(Br)cc3c(C(=O)NCC(CCC(=O)O)c3c(F)ccc(F)c3Cl)c2C)C([2H])([2H])C([2H])([2H])C1([2H])[2H] (single isomer, unassigned)

— patent US11149018B2, “Substituted N-arylethyl-2-aminoquinoline-4-carboxamides and use thereof” (Bayer Aktiengesellschaft, priority 2017, dated 2021)
